{
  "source": "ChEMBL document CHEMBL3425437",
  "about": "“Selective Inhibitors of Cyclin G Associated Kinase (GAK) as Anti-Hepatitis C Agents” (J Med Chem, 2015)",
  "assay": "Cytotoxicity against human Huh7.5 cells infected with Hepatitis C virus J6/JFH assessed as effect on cell viability after 72 hrs by Alamarblue assay",
  "assay_type": "cell-based",
  "conditions": "huh-7, 72 h",
  "data": [
    {"smiles": "COc1cc(-c2cnc3c(N4CCOCC4)snc3c2)ccc1N", "values": [
      {"measurement": "CC50", "result": 8.92, "unit": "µM"}
    ]}
  ]
}
